Source: US20140228293A1, “PARATHYROID HORMONE ANALOGS, COMPOSITIONS AND USES THEREOF” (THE GENERAL HOSPITAL CORPORATION, priority 2011, published 2014)

Test: Stability study by HPLC-MS under ambient conditions
Assay type: physicochemical
Conditions: room temperature, air, water solution, neutral pH
Source text: High performance liquid chromatography-mass spectroscopy (HPLC-MS) was used to monitor the degradation of four synthetic compounds over a period of time.

hPTH (1-84) [PTH(1-84), reference compound]
degradation after 7 days (estimated based on UV signal): greater than 90%
